From ChEMBL document CHEMBL1146972, “Specific inhibitors of Plasmodium falciparum thioredoxin reductase as potential antimalarial agents” (Bioorg Med Chem Lett, 2006) come the findings set out here.

Chains of the proteins cited; added tags and fusions are not shown. Residues count along the entry.
UniProt Q16881, whole entry: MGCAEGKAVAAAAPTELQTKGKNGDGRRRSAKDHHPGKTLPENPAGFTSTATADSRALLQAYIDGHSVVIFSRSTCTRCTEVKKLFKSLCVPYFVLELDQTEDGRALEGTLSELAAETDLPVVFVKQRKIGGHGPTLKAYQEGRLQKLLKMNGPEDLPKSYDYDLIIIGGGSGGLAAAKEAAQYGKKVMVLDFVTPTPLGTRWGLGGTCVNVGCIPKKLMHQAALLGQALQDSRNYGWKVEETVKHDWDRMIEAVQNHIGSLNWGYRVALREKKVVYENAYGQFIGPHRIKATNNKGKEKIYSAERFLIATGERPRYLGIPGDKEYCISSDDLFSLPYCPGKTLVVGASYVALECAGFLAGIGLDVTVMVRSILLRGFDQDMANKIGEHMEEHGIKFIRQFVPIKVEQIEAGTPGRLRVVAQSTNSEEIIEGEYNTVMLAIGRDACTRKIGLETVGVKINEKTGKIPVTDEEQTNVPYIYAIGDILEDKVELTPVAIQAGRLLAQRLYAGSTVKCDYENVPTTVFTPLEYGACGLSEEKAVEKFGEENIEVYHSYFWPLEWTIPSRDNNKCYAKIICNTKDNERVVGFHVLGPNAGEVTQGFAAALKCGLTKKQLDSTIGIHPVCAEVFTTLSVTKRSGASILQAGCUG
UniProt Q9NNW7, 37-524 limits assumed: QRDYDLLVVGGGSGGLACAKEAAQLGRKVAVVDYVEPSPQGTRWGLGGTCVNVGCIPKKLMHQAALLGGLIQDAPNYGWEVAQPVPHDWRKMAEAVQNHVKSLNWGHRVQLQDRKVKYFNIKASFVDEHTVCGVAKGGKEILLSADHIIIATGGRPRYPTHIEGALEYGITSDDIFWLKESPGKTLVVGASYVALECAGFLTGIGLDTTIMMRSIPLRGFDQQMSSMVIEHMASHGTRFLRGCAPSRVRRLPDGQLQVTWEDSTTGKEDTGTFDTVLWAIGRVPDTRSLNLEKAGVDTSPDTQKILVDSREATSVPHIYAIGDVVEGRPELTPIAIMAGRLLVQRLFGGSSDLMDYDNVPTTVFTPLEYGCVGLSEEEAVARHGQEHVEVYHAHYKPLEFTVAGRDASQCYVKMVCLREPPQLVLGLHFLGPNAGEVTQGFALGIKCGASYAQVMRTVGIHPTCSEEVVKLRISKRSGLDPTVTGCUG
UniProt Q86VQ6, whole entry: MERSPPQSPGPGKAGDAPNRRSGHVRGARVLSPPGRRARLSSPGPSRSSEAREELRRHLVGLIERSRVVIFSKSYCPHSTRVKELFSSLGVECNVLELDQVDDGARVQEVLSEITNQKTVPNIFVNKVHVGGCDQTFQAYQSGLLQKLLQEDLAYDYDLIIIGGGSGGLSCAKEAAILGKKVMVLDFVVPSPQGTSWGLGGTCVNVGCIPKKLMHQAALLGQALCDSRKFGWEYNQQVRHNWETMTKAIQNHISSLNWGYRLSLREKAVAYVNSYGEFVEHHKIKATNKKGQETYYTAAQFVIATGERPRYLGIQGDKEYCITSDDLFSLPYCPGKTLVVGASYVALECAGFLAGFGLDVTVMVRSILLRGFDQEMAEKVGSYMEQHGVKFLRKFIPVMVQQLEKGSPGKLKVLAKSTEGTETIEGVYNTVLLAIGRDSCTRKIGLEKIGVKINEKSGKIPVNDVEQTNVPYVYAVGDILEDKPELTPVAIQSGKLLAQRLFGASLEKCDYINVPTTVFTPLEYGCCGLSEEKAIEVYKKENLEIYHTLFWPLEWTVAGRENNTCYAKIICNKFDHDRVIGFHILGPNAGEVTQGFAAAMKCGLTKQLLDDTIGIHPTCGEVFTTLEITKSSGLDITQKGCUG

For the test, the target named is Thioredoxin reductase (Homo sapiens, UniProt Q16881+Q9NNW7+Q86VQ6). Put plainly: Inhibition of human TrxR. Format: protein assay.

pIC50: −log10 of the molar value.

Usually pIC50 stands for the IC50 on a negative log10 scale, so that one unit is a factor of ten. The low end stands for a large IC50, the high end for a small IC50. With `O=[N+]([O-])c1cc([N+](=O)[O-])c2nsnc2c1`, the pIC50 is 5.70.
